Data from patent US20200002670A1, “Generation of Endocrine Progenitor Cells from Human Pluripotent Stem Cells Using Small Molecules” (Novo Nordisk A/S, priority 2013, published 2020).

System: pancreatic endoderm cells
Assay: NGN3/NKX2.2 double positive cells by immunostaining and InCell imaging after PE to EP differentiation
Type: cell-based, human
Settings: 0.5 μM added to method of example 2 for three days
Experimental: After three days of EP differentiation, at EP day 4, media were aspirated followed by fixation of the cells at room temperature for 30 min with 4% paraformaldehyde (VWR, 97.131.000). Cells were washed with PBS and permeabilized with 0.5% Triton X-100 (Sigma, 9002-93-1) for 10 min, washed and blocked in 0.5% TNB-buffer (Perkin Elmer) for 30 min at room temperature. Primary antibodies, sheep anti-NGN3 (R&D systems #AF3444) and rabbit anti-NKX2.2 (Sigma #HPA003468) were diluted 1:1000 and 1:500, respectively, in 0.1% Triton X-100 in PBS and added to each well for overnight incubation at 4° C. Cells were washed three times with PBS. […] The total cell number based in the DAPI counterstaining and the number of NGN3/NKX2.2 double positive cells was determined using InCell Developer Toolbox 1.8 (GE Healthcare). The fraction of NGN3/NKX2.2 double positive cells were quantified using the InCell developer toolbox software (GE Healthcare) and normalized to the combined protocol K&N (example 2) on each plate and the % effect was calculated (% effect NGN3/NKX2.2 double positive=((S−Sneg)/(|Spos−Sneg|))*100). […]
Imaging was performed using the InCell Analyzer 2000 (GE Healthcare). […] The total cell number based in the DAPI counterstaining and the number of NGN3/NKX2,2 double positive cells was determined using InCell Developer Toolbox 1.8 (GE Healthcare). […]

SMILES: COc1cc2ncnc(Nc3ccc(F)c(Cl)c3)c2cc1OCCCN1CCOCC1 [Gefitinib]
- % effect NGN3/NKX2.2 double positive cells: 242%
